Values quoted from earlier work, collected in paper PMC6628571.

Molecular target: Aβ(12–28) 12-28 (Homo sapiens) (UniProt P05067)
Assay: NMR

In the case of Transthyretin (from UniProt P02766), the Kd is given as 2 µM.
